According to patent US20200138825A1, “METHOD OF TREATING MALIGNANT RHABDOID TUMOR OF THE OVARY (MRTO)/SMALL CELL CANCER OF THE OVARY OF THE HYPERCALCEMIC TYPE(SCCOHT) WITH AN EZH2 INHIBITOR” (Epizyme, Inc., priority 2015, published 2020):

Tested on: EZH2
Test: Selectivity and potency for EZH2 versus other histone methyltransferases (by Ki)
Type: biochemical

**Q.** CCN(c1cc(-c2ccc(CN3CCOCC3)cc2)cc(C(=O)NCc2c(C)cc(C)[nH]c2=O)c1C)C1CCOCC1 [tazemetostat] was tested. Which “targeting both WT and mutant EZH2” value did it give?
**A.** potent
